Data from patent publication US20210128740A1, “HDAC INHIBITORS-BASED ANTIBODY DRUG CONJUGATES (ADCs) AND USE IN THERAPY” (ALFASIGMA S.P.A., priority 2017, published 2021).
pIC50: −log10 of the molar value.

Legend:
[1] = test system: A549-luc-C8 (A549luc) metastatic lung cancer; assay: In vivo effect by aerosol against metastatic A549 non-small cell lung cancer (bioluminescence); parameters: species or system mice; conditions: A549 NSCLC i.v.; Aerosol q7dx4, 3.5 mL of 100 μg/mL solution
Protocol: Metastatic lung cancer was established by injecting 5×10^6 A549-luc-C8 (A549luc) cells into the tail vein of immunodeficient SCID/beige mice. […] Treatments were repeated according to the schedule q7dx4. Tumor bioluminescence imaging (BLI) was recorded at different time points by Xenogen IVIS Imaging System 200 (Perkin Elmer), 15 min after i.p. injection of luciferin (150 μg/mouse).

[2] = test system: tumour cells (A549, H1975, SKBR3, LS174T, SKOV3, CAPAN1, N87); assay: Internalization by tumour cells (HCS fluorescence imaging, Operetta); assay type: cell-based; parameters: key: ++ is a score representing a high extent of binding or internalization; conditions: 5 μg/mL, 3 hours at 37° C.
Protocol: Ability of ADCs to internalize within tumour cells, following their binding to cognate receptors, was assessed by means of HCS fluorescence imaging, through Operetta system (Perkin Elmer). Several tumour cell types, including lung (A549, H1975), breast (SKBR3), colon (LS174T), ovarian (SKOV3), pancreas (CAPAN1) and stomach (N87) carcinoma cell lines, were tested. Cells were seeded in 96-well microtiter plates (0.5-1×10^4 well) and then incubated with 5 μg/mL antibodies in culture medium, for 3 hours at 37° C. Following two washings, cells were then fixed with 4% formaldehyde in PBS, permeabilized with PBS 0.2% Tween-20 (PBS-T) and blocked with 2% BSA in PBS-T, and ultimately stained with FITC-conjugated mouse anti-human IgG (BD Pharmingen). Fluorescence was acquired and analyzed by means of the High Content Screening (HCS) system Operetta (Perkin Elmer). Cells were counterstained with Draq5 dye (Cell Signaling).

[3] = test system: A549 non-small cell lung carcinoma; assay: In vivo antitumor effect against s.c. A549 non-small cell lung cancer (Example 22); parameters: species or system mice; conditions: A549 NSCLC s.c.; 50 mg/kg i.p., q4dx4
Protocol: Nude mice were given a subcutaneous injection of 5×10^6 A549 non-small cell lung carcinoma cells suspended in 100 μL cell culture medium RPMI supplemented with 10% FBS. […] Tumor measurements and data as in Example 21.

[4] = test system: ErbB1 and ErbB2 receptors; assay: ADC binding to ErbB1 and ErbB2 receptors on tumor cells (FACS analysis); parameters: key: ++ is a score representing a high extent of binding or internalization; conditions: 10 μg/mL, 1 hour, 4° C.; tumor cell lines with different EGFR and ErbB2 expression
Protocol: Binding of the ADCs to ErbB1- and ErbB2-expressing tumor cells was confirmed by FACS analysis. Various tumor cell lines with different levels of EGFR and ErbB2 expression, including lung (A549, H1975), breast (SKBR3), colon (LS174T), ovarian (SKOV3), pancreas (CAPAN1 and MIAPACA-2) and stomach (N87) carcinoma cell lines, were used in the experiments. Cell pellets were incubated 1 hour, at 4° C., with 10 μg/mL antibodies or ADCs in PBS and then, after two washings in PBS, stained 1 hour, at 4° C., with mouse anti-human FITC-conjugated IgGs (BD Pharmingen). After two further washings, propidium iodide (PI) was added and cell-associated fluorescence analysis was performed by means of a FACScalibur (Becton Dickinson).

[5] = test system: PDX pancreas carcinoma PA5363; assay: In vivo antitumor effect of ST8154AA1 against PDX pancreas cancer PA5363; parameters: species or system mice; conditions: PDX pancreas ca. PA5363 s.c.; 40 mg/kg i.p., q4dx5
Protocol: NOD-SCID mice (from Jackson Laboratories) were given a single subcutaneous injection of cells of the patient PA5363 P2 at 51000 cells/100 μL re-suspended in an equal volume of Cultrex 10× spheroid phormation ECM.
Tumor growth measurements and data as in Example 20.

[6] = test system: NCI-H1975 non-small cell lung carcinoma cells; assay: Inhibition of tumor cell proliferation (CellTiter-Glo), NCI-H1975; assay type: cell-based; conditions: NCI-H1975, 6 days of treatment; read-out: IC50, antiproliferative activity
[7] = test system: Calu-3 non-small cell lung carcinoma cells; assay: Inhibition of tumor cell proliferation (CellTiter-Glo), Calu-3; assay type: cell-based; conditions: Calu-3, 6 days of treatment; read-out: IC50, antiproliferative activity
[8] = test system: CAPAN-1 orthotopic pancreatic tumor; assay: In vivo antitumor effect against orthotopic CAPAN-1 pancreas cancer; parameters: species or system mice; conditions: 40 mg/kg i.p., q4dx4
From the text: Capan-1 (1×10^6) cells were directly injected into pancreas of experimental groups.

[9] = test system: PDX pancreas cancer PA5363; assay: In vivo antitumor activity of ST8176AA1 against PDX pancreas cancer PA5363; parameters: species or system mice; conditions: for Tumor inhibition (%) vs vehicle: PDX pancreas ca. PA5363 s.c., 15 mg/kg i.p., q4dx5
Protocol: NOD-SCID mice (from Jackson Laboratories) were given a single subcutaneous injection of cells of the patient PA5363 P2 at 77000 cells/100 μL resuspended in an equal volume of Cultrex 10× spheroid phormation ECM.
Tumor measurements and data as in Example 20.

[10] = test system: LS174T colon carcinoma; assay: In vivo antitumor effect against s.c. LS-174T colon cancer; parameters: species or system mice; conditions: for Tumor inhibition (%) vs vehicle: LS174-T colon ca. s.c., 15 mg/kg i.p., q4dx4
From the text: Tumors were allowed to develop in Nu/Nu mice for 6 days after s.c. injection of 5×10^6 LS174T colon carcinoma cells. Lesion development and response to antibody treatment was monitored using a digital caliper.

[11] = test system: SKOV-3 ovarian carcinoma; assay: In vivo antitumor effect against orthotopically (i.p.) implanted SKOV-3 ovarian cancer, survival; parameters: species or system mice; conditions: for Antitumor efficacy: SKOV-3 i.p., 15 mg/kg i.p. q4dx4; for Increase in lifespan (%) vs vehicle: SKOV-3 ovarian ca. orthotopic, 15 mg/kg i.p., q4dx4
Protocol: Nude Nu/Nu female mice (from Charles River, Italy) were given a single intraperitoneally injection of 10×10^6 SKOV-3 ovarian carcinoma cells suspended in 200 μL cell culture medium RPMI supplemented with 10% FBS.

[12] = test system: LS174-T colon carcinoma; assay: In vivo efficacy against intraperitoneal LS174-T colon cancer, survival; conditions: 15 mg/kg i.p., q4dx4; for Increase in lifespan (%) vs vehicle: LS174-T colon ca. orthotopic (i.p.); for Median survival time (MST): LS174-T i.p.

Cetuximab [reference compound]
Tumor or Metastases Inhibition (%) vs vehicle [1]: 50%
Internalization (HCS Imaging) [2]: ++
Tumor or Metastases Inhibition (%) vs vehicle [3]: 34%
Binding (FACS analysis) [4]: ++
Tumor or Metastases Inhibition (%) vs vehicle [5]: 25%
pIC50 [6]: < 6.30
pIC50 [7]: < 6.30
Tumor or Metastases Inhibition (%) vs vehicle ([8]; CAPAN-1 orthotopic in pancreas, tumor weight 90 days after tumor injection): 49%
CR (mice with complete responses) ([8]; CAPAN-1 orthotopic, 40 mg/kg): 2/10, P < 0.05

ST8176AA1
Antitumor efficacy compared with Trastuzumab ([9]; PDX pancreas PA5363, 15 mg/kg ip q4dx5): significantly more efficacious than trastuzumab
Tumor inhibition (%) vs vehicle [9]: 35%
Internalization (HCS Imaging) [2]: ++
Tumor inhibition (%) vs vehicle [10]: 25%
Antitumor efficacy ([10]; LS174T s.c., 15 mg/kg i.p. q4dx4): significantly inhibit the tumor growth of colon cancer
Binding (FACS analysis) [4]: ++
Antitumor efficacy [11]: efficacious
Increase in lifespan (%) vs vehicle [11]: 95%
Increase in lifespan (%) vs vehicle [12]: 35%
Median survival time (MST) [12]: 50 days

ST8177AA1
Internalization (HCS Imaging) [2]: ++
Binding (FACS analysis) [4]: ++

ST8178AA1
Internalization (HCS Imaging) [2]: ++
Binding (FACS analysis) [4]: ++

ST8179AA1
Internalization (HCS Imaging) [2]: ++
Binding (FACS analysis) [4]: ++

ST8205AA1
Internalization (HCS Imaging) [2]: ++
Binding (FACS analysis) [4]: ++

ST8218AA1
Internalization (HCS Imaging) [2]: ++
Binding (FACS analysis) [4]: ++

ST8219AA1
Internalization (HCS Imaging) [2]: ++
Binding (FACS analysis) [4]: ++

Trastuzumab [reference compound]
Tumor inhibition (%) vs vehicle [9]: 0%
Internalization (HCS Imaging) [2]: ++
Tumor inhibition (%) vs vehicle [10]: 0%
Binding (FACS analysis) [4]: ++
Antitumor efficacy [11]: efficacious
Increase in lifespan (%) vs vehicle [11]: 72%
Increase in lifespan (%) vs vehicle [12]: 0%
Median survival time (MST) [12]: 37 days
